Target: CypA (cyclophilin A) (Homo sapiens, UniProt P62937)
Assay: biochemical

The chains behind the UniProt entries cited, without tags or fusion partners.
UniProt P62937, whole entry: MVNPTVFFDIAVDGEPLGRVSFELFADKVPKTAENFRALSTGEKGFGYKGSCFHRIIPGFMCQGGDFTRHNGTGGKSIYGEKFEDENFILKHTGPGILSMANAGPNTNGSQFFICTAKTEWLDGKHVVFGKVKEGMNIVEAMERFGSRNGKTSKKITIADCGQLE

Work on C=C/C=C\C[C@@H](C)[C@@H](O)[C@H]1C(=O)N[C@@H](CC)C(=O)N(C)CC(=O)N(C)[C@@H](CC(C)C)C(=O)N[C@@H](C(C)C)C(=O)N(C)[C@@H](CC(C)C)C(=O)N[C@@H](C)C(=O)N[C@H](C)C(=O)N(C)[C@@H](CC(C)C)C(=O)N(C)[C@@H](CC(C)C)C(=O)N(C)[C@@H](C(C)C)C(=O)N1C [Z-ISA247] yielded a Kd of 61 nM.
